Results on one molecule are retold here after patent publication US20230068456A1, “REAL-TIME MONITORING OF IN VIVO FREE RADICAL SCAVENGERS THROUGH HYPERPOLARIZED N-ACETYL CYSTEINE ISOTOPES” (THE UNITED STATES OF AMERICA, AS REPRESENTED BY THE …, priority 2020, published 2023).

One series concerns SU.86.86. The series can be described thus: In cell dynamic 13C NMR of hyperpolarized [1-13C] NAC at 1T, SU.86.86 cells. In kind it is cell-based, human. The conditions noted are these: SU.86.86 compared with Hs766t cells, FIGS. 2C and 2D. From the text: FIG. 2B is a in cell dynamic ^13C NMR spectra of hyperpolarized [1-^13C] NAC at 1T NMR on 20×10^6 cells of human pancreatic tumor cell lines of SU.86.86 (left) and expanded spectra with 100 times magnifications at 2 seconds after the hyperpolarized [1-^13C] NAC injections in SU.86.86 (right);
In an embodiment, a cell dynamic ^13C NMR spectra of hyperpolarized [1-^13C] NAC at 1T NMR spectrometer on human pancreatic ductal adenocarcinoma (PDAC) cell lines, which have one of the worst prognosises among common cancers and need effective diagnostic approaches, Hs766t (FIG. 2A) and SU.86.86 (FIG. 2B), in both cases, the cell dynamic ^13C-nuclear magnetic resonance (NMR) spectra of the hyperpolarized [1-^13C] N-acetyl cysteine may show three distinct peaks, a major peak at about 176.5 ppm and two peaks at about 176.8 and about 177.5 ppm.

The next series concerns Hs766t tumor xenografts. The series can be described thus: Dynamic 13C MR spectra and CSI of hyperpolarized [1-13C] NAC at 3T MRI, Hs766t tumor xenografts. The conditions noted are these: Hs766t xenograft, FIG. 4E. As for the experimental part: All of the animal experiments were conducted in compliance with the Guide for the Care and Use of Laboratory Animal Resources, and experimental protocols were approved by the Animal Care and Use Committee, National Cancer Institute (NCI-CCR-ACUC) (National Research Council, Committee for the Update of the Guide for the Care and Use of Laboratory Animals. Guide for the care and use of laboratory animals. Washington, D.C.: Institute of Laboratory Animal Resources 2011). The human pancreatic ductal adenocarcinoma (PDAC) cell lines, […], and SU.86.86 cells, were purchased from Threshold Pharmaceuticals (Redwood City, Calif.). Human pancreatic tumor inoculated mice were generated by subcutaneous injection of 3×10^5 cells into the right hind legs of mice. Detailed conditions for cell culture and xenograft tumor development were as described previously in K. Yamamoto, J. R. Brender, T. Seki, S. Kishimoto, N. Oshima, R. Choudhuri, S. S. Adler, E. M. Jagoda, K. Saito, N. Devasahayam, P. L. Choyke, J. B. Mitchell, and M. C. Krishna, Cancer Res 2020, 80, 2087-2093, which is incorporated herein in its entirety by reference. […] Both respiration (60-90 breaths per min) and temperature (35-37° C.) were maintained at a normal physiological range and monitored continuously during the animal experiment using the adjusted anesthesia. […]

As for `CC(=O)N[C@@H](CS)[13C](=O)O` [[1-^13C] NAC, [1-^13C] N-acetyl cysteine], the “potential for NAC oxidation with glutathione (NAC-GSH/NAC peak intensity ratio over time and area under the curve ratio)” value with SU.86.86 is listed as “higher potential for NAC oxidation with glutathione”. In addition, in the series on Hs766t tumor xenografts, the “distribution of non-converted NAC by chemical shift imaging” value is given as “observed dominantly in the leg area”; the “site of NAC-GSH formation by chemical shift imaging” value was “highest in the tumor and lowest in the surrounding muscle and leg regions”.
